Results on one substance are retold here after patent US10357438B2, “Metal salt compositions” (Colgate-Palmolive Company, priority 2014, dated 2019).

This data set has as its system five species, planktonic mix of representative oral species (Actinomyces viscosus, Lactobacillus casei, Streptococcus oralis, Fusobacterium nucleatum, and …). The note with it: 1% elemental Zn final concentration; 1 h incubation; resazurin fluorescence.

In the case of sodium dizinc citrate chloride, the “% viability” value turned out to be 2.0%.
